The values that follow come from paper PMC4980837 (Archiv der Pharmazie, 2013).

The target of the experiment is recombinant human PDE5 (Homo sapiens, UniProt O76074). As to the kind of experiment: PDE5 inhibition, IMAP FP phosphodiesterase assay. In kind it is biochemical. The settings on record: read-out: PDE5 % inhibition at 10 μm.

The structures appear in SMILES notation.

As a reminder, the inhibition is the share of the control response that was lost under treatment. Regarding `CCN1C(=O)[C@@H]2Cc3c([nH]c4ccccc34)[C@@H](c3ccc(Br)s3)N2C1=O` [Compound 8, (5S,11aS) 5-(5-Bromo-2-thienyl)-2-ethyl-5,6,11,11a-tetrahydro-1H-imidazo[1′,5 ′:1,6]pyrido[3,4-b]indole-1,3(2H)-dione], the inhibition at 10 µM was 99%.
